Source: PMC10655810 (Journal of Agricultural and Food Chemistry, 2023)

Chains of the proteins cited; added tags and fusions are not shown. Residues count along the entry.
UniProt P00791, 60-385: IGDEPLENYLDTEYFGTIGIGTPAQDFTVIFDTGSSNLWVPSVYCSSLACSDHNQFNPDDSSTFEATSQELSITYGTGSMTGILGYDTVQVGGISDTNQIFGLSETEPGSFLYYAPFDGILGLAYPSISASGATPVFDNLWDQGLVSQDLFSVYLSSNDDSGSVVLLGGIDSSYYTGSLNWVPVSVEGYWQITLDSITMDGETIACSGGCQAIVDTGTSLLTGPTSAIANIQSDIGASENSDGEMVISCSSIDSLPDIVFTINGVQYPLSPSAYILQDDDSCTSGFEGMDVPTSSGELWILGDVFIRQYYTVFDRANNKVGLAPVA

Target: pepsin (Sus scrofa, UniProt P00791)
Assay type: biochemical, porcine
Settings: pH 2.5

pepstatin A
Proteolytic activity of pepsin (residual activity): 7 ± 1.6%
